Measured values: patent publication US20100004165A1, “Novel Protein Transduction Domains and Uses Therefor” (The Arizona Board of Regents, a body corporate acting on …, priority 2005, published 2010)

Tests used:
porcine ear skin [1] = test: Fluorescence microscopy of skin sections after peptide application; settings: 4 hours post-application
Text: The skin sections (8 μm) were mounted on glass slides. The slides were visualized without any additional staining or treatment through a 20× objective using a Zeiss microscope (Carl Zeiss, Thornwood, N.Y., USA) equipped with a filter for FITC and AxioVision software.

porcine ear skin [2] = test: In vitro skin penetration and transdermal delivery, porcine ear skin in Franz diffusion cell, spectrofluorimetry (Example 3)
Procedure: Fluorescence microscopy was used to visualize the peptides in different skin layers.
Formulations: Except in the experiments involving chemical penetration enhancers, FITC-labeled peptides were dissolved in phosphate-buffered saline (PBS, 10 mM, pH 7.2); the peptide concentration was 100 μM. In the experiment involving penetration enhancers, PBS could not be used as a solvent because of the lipophilic nature of monoolein and oleic acid. Propylene glycol was used as a solvent, since it solubilizes both lipids and peptides. […] The formulations were prepared by mixing monoolein or oleic acid with propylene glycol and adding the peptides to the system immediately thereafter.
Porcine ear skin was used as model skin for in vitro skin penetration studies because of its similarity with human skin, especially regarding histological and biochemical properties and permeability to drugs (33). Freshly excised porcine ears were obtained from a local abattoir. The skin from the outer surface of the ear was carefully dissected; making sure that the subcutaneous fat was maximally removed (34). Maximum care was taken to maintain the integrity of the skin, which was assured by histology. The cleaned porcine ear skin was immediately mounted in a Franz diffusion cell (diffusion area of 1 cm^2; Laboratory Glass Apparatus, Inc, Berkeley, Calif., USA), with the stratum corneum facing the donor compartment (where the formulation was applied) and the dermis facing the receptor compartment, which was filled with PBS (100 mM, pH 7.2, 3 mL). The receptor phase was maintained at 37° C. and under constant stirring. To achieve higher reproducibility, the skin samples were equilibrated to the diffusion cell conditions for 30 minutes before application of any formulation.
PBS solutions or propylene glycol formulations of the peptides (70 μL each) were applied to the skin surface (donor compartment). […] The concentrations of FITC-P20 (SEQ ID NO: 9), FITC-YARA-P20 (SEQ ID NO: 42), and FITC-TAT-P20 (SEQ ID NO: 43) in the skin and receptor phase were determined at 0.5, 1, 2, 4, and 8 hour post-application.
At the end of the experiment, skin surfaces were thoroughly washed with distilled water to remove excess formulation and carefully wiped with a tissue paper. To separate the stratum corneum (SC) from the remaining epidermis (E) and dermis (D), the skin was subjected to tape stripping. The skin was stripped with 15 pieces of adhesive tape (3M, St. Paul, Minn., USA), and the tapes containing the SC were immersed in 3 mL of a water:methanol (1:1 v/v) solution, vortexed for 2 min, and bath sonicated for 30 minutes. […]

YKALRISRKLAK [YKAc]
localisation of fluorescence in skin layers (porcine ear skin [1]): predominantly localized in the SC | influence of propylene glycol on skin penetration compared to PBS (porcine ear skin [2]; 4 hours post-application): did not influence | penetration in both SC and [E+D] (porcine ear skin [2]; PBS vehicle, 100 μM, 4 hours post-application): very small | transdermal delivery (peptide in receptor phase), in words (porcine ear skin [2]; PBS vehicle, 4 hours post-application): no peptide was found in the receptor phase | increase of penetration in [E+D] on addition of monoolein or oleic acid (porcine ear skin [2]; propylene glycol, monoolein 10% w/w or oleic acid 5% w/w, 4 h): ~2.5 times
